In EP0427405A1 (priority 1989, dated 1991):

Columns and labels:
[1] = system: Phaffia rhodozyma ENZA-M106; assay: NTG mutagenesis, survival rate; conditions: 9 ml cells added to 1 ml of 2 mg/ml NTG, 15 minutes, room temperature
[2] = system: Phaffia rhodozyma ENZA-M10; assay: kill curves with mutagens (viable cell count against exposure); type: cell-based; conditions: strain E1
[3] = system: Phaffia rhodozyma ENZA-A169; assay: as above; type: cell-based

CN(N=O)C(=N)N[N+](=O)[O-]
survival rate [1]: 3.1%
kill curve, shape [2]: definite "bump"
kill curve, kinetics of death ([3]; strain E3): follows 1st order kinetics
kill curve, speed of killing ([3]; strain E3, compared with E1): killed much more quickly than E1
